Laboratory results as given in patent US9198909B1, “Materials and methods for inhibiting mamalian S-nitrosoglutathione reductase” (Indiana University Research and Technology Corporation, priority 2007, dated 2015).

Sequences of proteins named here, by UniProt entry; tags and fusion partners are left off. Residues count along the entry.
UniProt P11766, 2-374 limits assumed: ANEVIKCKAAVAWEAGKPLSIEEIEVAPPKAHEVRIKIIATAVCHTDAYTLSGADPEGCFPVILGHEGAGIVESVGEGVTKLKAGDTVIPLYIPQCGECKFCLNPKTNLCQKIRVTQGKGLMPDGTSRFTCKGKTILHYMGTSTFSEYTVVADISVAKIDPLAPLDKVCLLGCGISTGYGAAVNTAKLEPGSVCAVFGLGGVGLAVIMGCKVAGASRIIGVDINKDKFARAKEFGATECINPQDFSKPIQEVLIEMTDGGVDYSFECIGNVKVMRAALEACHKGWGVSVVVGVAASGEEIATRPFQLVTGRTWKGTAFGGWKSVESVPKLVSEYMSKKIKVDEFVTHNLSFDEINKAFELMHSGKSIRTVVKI

What was measured:
GSNOR = GSNOR (Homo sapiens, UniProt P11766); test: Dead-end inhibition studies of GSNOR; conditions: pH 7.5, 25° C.
Description: Referring now to Table 3, inhibition experiments were performed at 25° C. in 50 mM potassium phosphate (pH 7.5) including 0.1 mM EDTA. A minimum of five concentrations of the varied substrate and three inhibitor concentrations were used for each experiment. NADH and GSNO concentrations were held at 15 or 10 μM, respectively when present as a constant substrate in the assay. The Kis and Kii values are respectively the slope and intercept inhibition constants and are listed along with their associated standard errors. All data were fit to a competitive (C), noncompetitive (NC), or uncompetitive (UC) inhibition models. […] The KD value is the equilibrium dissociation constant of the inhibitor for binding to the GSNOR•NADH complex, obtained by measuring the changes in the fluorescence of GSNOR bound NADH with the addition of Inhibitor (λexc=350 nm; λemm^=455 nm). The dissociation constant was measured at 25° C. in 50 mM potassium phosphate pH 7.5. […]
Inhibition experiments with the GSNOR inhibitors were conducted at 25° C. in 3 ml of 50 mM potassium phosphate (pH 7.5) containing 0.1 mM EDTA. […] A minimum of three inhibitor concentrations were used in these assays and the rate of NADH and GSNO consumption was determined spectrophotometrically by following change in absorbance at 340 nm. […]

RAW 264.7 cells = test: Nitroso species accumulation in RAW 264.7 cells (triiodide chemiluminescence)
Description: Referring now to FIG. 3, briefly, RAW 264.7 cells were incubated with 500 μM GSNO alone (γ) or in presence of 33 μM Compound 6 (◯) or 7 (Δ) or 8 (▪). At indicated times or at 4 hr (in case of B), the cells were lysed and the lysate was analyzed for protein and nitroso species concentration by Bradford and chemiluminescence assay, respectively. For details, see Materials and methods. Data represents mean±SE (n=3−12).
RAW 264.7 cells were cultured in DMEM medium supplemented with 10% FBS, 200 U/ml of penicillin and 200 μg/mL of streptomycin. The cells were incubated at 37° C. in an atmosphere containing 5% CO2 and 95% air. For the experiments, 1-2×10^6 cells were plated in six-well plates a day before the experiment. On the day of the assay the medium was replaced with 3 ml of fresh medium and the cells were treated with compounds for a predetermined length of time. Following the incubation period, the cells were washed three times with PBS and scraped off the plate in 250 μl of lysis buffer (50 mM potassium phosphate pH 7.0 containing 50 mM NEM and 1 mM EDTA). Cells were lysed by sonication using a micro tip probe (three pulses of 30% duty cycle; 2 output control on a Fisher Sonicator). Cell debris was pelleted by centrifugation (10 min at 16,000 g) and the cell lysate was analyzed for protein concentration using the Bio-Rad dye-binding protein assay. The concentration of nitroso compounds in the cell lysate was determined using the triiodide based chemiluminescence method using a Sievers 280 nitric oxide analyzer. Briefly, cell lysates were treated with 15% v/v of a sulfanilamide solution (5% w/v in 0.2 M HCl) and kept at room temperature for 5 min to remove nitrite. The triodide mixture was prepared fresh every day as described earlier and kept at 60° C. in the reaction vessel. […] The amount of s-nitrosothiols in the cell lysate was determined by treating initially passing the cell lysate through a microspin column and treating the eluate with 5 mM HgCl2 before determining the nitroso compound concentration using chemiluminescence. […]

GSNOR•NADH complex = GSNOR•NADH complex (Homo sapiens, UniProt P11766); test: Fluorescence equilibrium binding to GSNOR•NADH complex; conditions: 1.7 μM NADH, 2 μM GSNOR, 50 μM compound 8
Description: Referring now to FIG. 2, (A) Changes in the fluorescence of NADH (curve a) upon sequential addition of GSNOR (curve b) and compound 8 (curve c). To a solution of 1.7 μM NADH were added 2 μM GSNOR and 50 μM compound 8 in sequence and the fluorescence of the solution measured each time (λexc=350 nm; λemm=375-550 nm); (B) Changes in the fluorescence of NADH (curve a) upon sequential addition of GSNOR (curve b), 12-HDDA (curve c) and compound 8 (curve d). To a solution of 1.7 μM NADH were added 2 μM GSNOR, 810 μM 12-HDDA and 50 μM compound 8 in sequence and the fluorescence measured each time (λexc=350 nm; λemm=375-550 nm); (C) Binding of compound 8 to GSNOR•NADH complex. The change in fluorescence of a 1.7 μM NADH and 2 μM GSNOR mixture (λexc=350 nm; λemm=455 nm) with increasing concentrations of compound 8 was fitted to a single site binding model (equation 1; see materials and methods) using the Graphpad Prizm 4. All of the fluorescence studies were conducted at room temperature in 50 mM potassium phosphate pH 7.5.
Referring now to Table 3, inhibition experiments were performed at 25° C. in 50 mM potassium phosphate (pH 7.5) including 0.1 mM EDTA. A minimum of five concentrations of the varied substrate and three inhibitor concentrations were used for each experiment. […] The dissociation constant was measured at 25° C. in 50 mM potassium phosphate pH 7.5. […]

Kis value relative to Kii value against varied NADH (GSNOR): five fold higher
type of inhibition against varied NADH (GSNOR; GSNO held at 10 μM): almost uncompetitive
Compound: CCOc1ccc(N(CC)C(=O)Cc2c(C(=O)O)[nH]c3ccc(Cl)cc23)cc1
increase in the levels of nitrosylated species versus GSNO alone (RAW 264.7 cells; 500 μM GSNO + 33 μM compound): 1.3-1.7 fold
difference in the levels of nitrosylated species versus GSNO alone (RAW 264.7 cells; 500 μM GSNO + 33 μM compound, 6 hrs): insignificant difference
maximal levels of nitroso compounds compared with the other compounds (RAW 264.7 cells; varied concentrations of compound): same extent
effect on fluorescence of GSNOR bound NADH (GSNOR•NADH complex): quenched the NADH fluorescence
